Measured values as given in paper PMC6420870 (Neuropharmacology, 2019).
Where a name gives a salt, the structure may show the parent alone.

Chains of the proteins cited; added tags and fusions are not shown. Residues count along the entry.
UniProt P31424, 21-1203: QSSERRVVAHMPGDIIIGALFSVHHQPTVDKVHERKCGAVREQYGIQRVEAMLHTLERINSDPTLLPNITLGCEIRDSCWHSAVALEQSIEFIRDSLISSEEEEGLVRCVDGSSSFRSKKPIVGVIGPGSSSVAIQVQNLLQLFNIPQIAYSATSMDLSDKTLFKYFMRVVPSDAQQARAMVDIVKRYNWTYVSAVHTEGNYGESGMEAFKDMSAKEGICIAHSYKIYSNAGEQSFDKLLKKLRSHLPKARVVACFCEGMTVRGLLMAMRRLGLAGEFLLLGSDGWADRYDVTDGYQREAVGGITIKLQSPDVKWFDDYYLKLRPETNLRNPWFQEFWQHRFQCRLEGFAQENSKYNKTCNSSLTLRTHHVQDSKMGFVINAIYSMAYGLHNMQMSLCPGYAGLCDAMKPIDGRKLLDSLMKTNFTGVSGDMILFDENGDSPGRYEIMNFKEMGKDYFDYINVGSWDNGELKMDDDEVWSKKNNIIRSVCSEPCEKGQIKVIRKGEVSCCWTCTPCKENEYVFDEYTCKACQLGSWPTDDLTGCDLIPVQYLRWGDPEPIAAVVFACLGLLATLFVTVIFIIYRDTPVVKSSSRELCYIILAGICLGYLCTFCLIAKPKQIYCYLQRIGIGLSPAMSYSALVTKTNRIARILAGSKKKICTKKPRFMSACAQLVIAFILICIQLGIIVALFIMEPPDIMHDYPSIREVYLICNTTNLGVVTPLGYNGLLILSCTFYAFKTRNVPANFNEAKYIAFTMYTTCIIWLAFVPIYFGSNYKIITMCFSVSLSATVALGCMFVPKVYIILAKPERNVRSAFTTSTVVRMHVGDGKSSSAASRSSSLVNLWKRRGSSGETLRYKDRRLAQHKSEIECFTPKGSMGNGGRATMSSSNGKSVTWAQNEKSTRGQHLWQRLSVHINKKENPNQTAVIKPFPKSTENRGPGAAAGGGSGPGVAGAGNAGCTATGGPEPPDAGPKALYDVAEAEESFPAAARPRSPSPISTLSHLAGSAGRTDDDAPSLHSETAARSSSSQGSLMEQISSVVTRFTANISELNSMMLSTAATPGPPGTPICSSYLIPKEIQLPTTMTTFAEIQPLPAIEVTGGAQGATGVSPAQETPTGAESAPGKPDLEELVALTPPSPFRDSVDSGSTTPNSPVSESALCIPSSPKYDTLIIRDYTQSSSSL

Assays:
[1] = target: T1, rat mGlu5 (HEK293A-rat mGlu5-low) (Rattus norvegicus, UniProt P31424); experiment: [3H]methoxy-PEPy inhibition binding, intact adherent cells; type: cell-based
[2] = target: T1, rat mGlu5 (HEK293A-rat mGlu5-low); experiment: IP1 accumulation; type: cell-based

Structure (SMILES)	Ki [1]	IC50 [2]
Cc1nc(C#Cc2cccnc2)cs1 [MTEP, 3-((2-methyl-1,3-thiazol-4-yl)ethynyl)pyridine hydrochloride]	63.1 nM	43.7 nM
Cc1cccc(C#Cc2ccccc2)n1 [MPEP, 2-Methyl-6-(phenylethynyl)pyridine]	5.5 nM	13.8 nM
